Laboratory results: ChEMBL document CHEMBL1129747, “Head group analogs of arachidonylethanolamide, the endogenous cannabinoid ligand” (J Med Chem, 1996)
pKi: −log10 of the molar value.

Protein sequences, listed by entry. Tags and fused reporters are not part of them.
UniProt P20272, whole entry: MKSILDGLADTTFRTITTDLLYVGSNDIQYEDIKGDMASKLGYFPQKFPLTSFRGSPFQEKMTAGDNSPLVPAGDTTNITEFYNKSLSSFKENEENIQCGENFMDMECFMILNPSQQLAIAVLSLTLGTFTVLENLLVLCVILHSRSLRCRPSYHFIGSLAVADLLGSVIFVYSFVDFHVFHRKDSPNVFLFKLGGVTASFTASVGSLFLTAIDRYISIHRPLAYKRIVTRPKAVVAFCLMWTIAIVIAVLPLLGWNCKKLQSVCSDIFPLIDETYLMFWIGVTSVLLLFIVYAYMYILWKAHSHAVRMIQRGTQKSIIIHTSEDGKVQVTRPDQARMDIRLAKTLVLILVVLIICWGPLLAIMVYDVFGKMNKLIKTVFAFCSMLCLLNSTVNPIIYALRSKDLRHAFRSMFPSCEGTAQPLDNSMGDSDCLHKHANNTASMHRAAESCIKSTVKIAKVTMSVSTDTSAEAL

Biological target: Cannabinoid receptor 1 (Rattus norvegicus, UniProt P20272)
Test: Displacement of [3H]CP-55940 from Cannabinoid receptor 1 of rat forebrain membranes
Type: cell membranes, Membrane

Structure (SMILES) | pKi
CCCCC/C=C\C/C=C\C/C=C\C/C=C\CCCC(=O)N(CCO)CCO | 6.76
CCCCC/C=C\C/C=C\C/C=C\C/C=C\CCCC(=O)N(C)CCO | 5.61
CCCCC/C=C\C/C=C\C/C=C\C/C=C\CCCC(=O)NCCO [ANANDAMIDE] | 7.11
